Source: PMC12596758 (Clinical pharmacology and therapeutics, 2025)

What was measured:
[1] = mice; cited from earlier work
[2] = cimetidine 400 mg vs baseline, healthy adults

CLr,b, effect of cimetidine exposure vs baseline (in words) [2]: unaffected
SMILES: CN(C)C(=N)N=C(N)N [Metformin]
liver-to-plasma ratio of metformin, effect of cimetidine [1]: significantly increase
